The target in the test is Norepinephrine transporter (Rattus norvegicus, UniProt Q9WTR4). The test is described as follows: Displacement of [3H]-nisoxetine from NET in Sprague-Dawley rat brain prefrontal cortex incubated for 180 mins by radioligand binding assay. The format is tissue-based. In general terms: Displacement assays read how much labelled ligand stays bound in the presence of the test substance.

Sequences of proteins named here, by UniProt entry; tags and fusion partners are left off.
UniProt Q9WTR4, whole entry: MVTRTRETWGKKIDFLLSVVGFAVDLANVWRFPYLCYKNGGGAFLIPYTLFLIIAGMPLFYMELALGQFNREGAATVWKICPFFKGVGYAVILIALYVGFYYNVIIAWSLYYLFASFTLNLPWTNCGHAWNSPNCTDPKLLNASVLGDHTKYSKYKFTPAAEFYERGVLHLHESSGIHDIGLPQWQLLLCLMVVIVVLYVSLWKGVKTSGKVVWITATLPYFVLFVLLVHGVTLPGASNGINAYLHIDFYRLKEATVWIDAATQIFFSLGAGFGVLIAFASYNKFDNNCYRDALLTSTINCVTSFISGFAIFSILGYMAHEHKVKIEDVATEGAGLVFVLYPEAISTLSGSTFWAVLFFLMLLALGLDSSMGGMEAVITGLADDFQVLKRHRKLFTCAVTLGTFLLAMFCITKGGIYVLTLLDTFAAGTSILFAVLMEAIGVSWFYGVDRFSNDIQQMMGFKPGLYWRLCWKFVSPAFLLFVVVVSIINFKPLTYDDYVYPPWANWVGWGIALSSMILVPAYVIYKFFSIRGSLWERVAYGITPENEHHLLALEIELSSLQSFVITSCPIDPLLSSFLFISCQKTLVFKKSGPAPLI

On to `CNCCC(Oc1ccccc1OC)c1ccccc1` (stereo unspecified) [NISOXETINE], for which the Ki (as a rule, the dissociation constant of the complex between target and ligand, obtained from inhibition or displacement) came to 1.5 nM.
